Source: patent publication US5827073A, “Photoreactive peptide derivatives” (Ludwig Institute for Cancer Research, priority 1995, dated 1998)

Amino acid sequences for entries named in this document (tags omitted). A change or cut given only in a name is not applied to a line headed by its entry.
UniProt P03485: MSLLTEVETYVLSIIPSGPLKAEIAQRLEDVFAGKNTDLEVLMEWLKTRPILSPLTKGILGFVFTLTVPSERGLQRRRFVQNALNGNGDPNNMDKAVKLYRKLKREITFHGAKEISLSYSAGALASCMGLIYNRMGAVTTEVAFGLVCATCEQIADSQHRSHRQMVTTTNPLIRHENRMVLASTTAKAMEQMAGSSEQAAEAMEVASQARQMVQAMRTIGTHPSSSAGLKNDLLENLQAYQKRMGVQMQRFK

Test system: HLA-A1
Test: Inhibition of HLA-A1 photoaffinity labelling on C1R/A1 cells by competitor peptides
Format: binding, human
Details: labelling with SEQ ID NO: 1 on C1R/A1 cells; 300 fold molar excess of competitor

## influenza matrix peptide 57-66: HLA-A2 restricted influenza matrix peptide 57-66 (KGILGFVFTL; Matrix protein 1; UniProt P03485 57-66, looked up, fragment) [reference compound]
  inhibition of HLA-A1 photoaffinity labelling: no detectable inhibition
